Reference: patent US20260364079A1 (Principia Biopharma Inc., priority 2022, published 2026)

Experiment: phase 1/2 study in relapsed/refractory ITP (NCT03395210), safety
Details: single patient

SMILES: CC(C)(C=C(C#N)C(=O)N1CCC[C@@H](n2nc(-c3ccc(Oc4ccccc4)cc3F)c3c(N)ncnc32)C1)N1CCN(C2COC2)CC1 (mixture of isomers) [rilzabrutinib, (R)-2-[3-[4-amino-3-(2-fluoro-4-phenoxy-phenyl)pyrazolo[3,4-d]pyrimidin-1-yl]piperidine-1-carbonyl]-4-methyl-4-[4-(oxetan-3-yl)piperazin-1-yl]pent-2-enenitrile]
- Platelet Count Prior to Rescue Medication (300 mg bid, baseline 3 × 10^9/L, C2D1): 1.4e+10 L⁻¹
- Platelet Count Prior to Rescue Medication (400 mg bid, baseline 21 × 10^9/L, C4D1): 1.6e+10 L⁻¹
